# Molecular target: T1, inducible NO-synthase (NO-synthase 2) (Homo sapiens, UniProt P35228)
# Amino acid sequences for entries named in this document (tags omitted).
# UniProt P35228, whole entry, species assumed: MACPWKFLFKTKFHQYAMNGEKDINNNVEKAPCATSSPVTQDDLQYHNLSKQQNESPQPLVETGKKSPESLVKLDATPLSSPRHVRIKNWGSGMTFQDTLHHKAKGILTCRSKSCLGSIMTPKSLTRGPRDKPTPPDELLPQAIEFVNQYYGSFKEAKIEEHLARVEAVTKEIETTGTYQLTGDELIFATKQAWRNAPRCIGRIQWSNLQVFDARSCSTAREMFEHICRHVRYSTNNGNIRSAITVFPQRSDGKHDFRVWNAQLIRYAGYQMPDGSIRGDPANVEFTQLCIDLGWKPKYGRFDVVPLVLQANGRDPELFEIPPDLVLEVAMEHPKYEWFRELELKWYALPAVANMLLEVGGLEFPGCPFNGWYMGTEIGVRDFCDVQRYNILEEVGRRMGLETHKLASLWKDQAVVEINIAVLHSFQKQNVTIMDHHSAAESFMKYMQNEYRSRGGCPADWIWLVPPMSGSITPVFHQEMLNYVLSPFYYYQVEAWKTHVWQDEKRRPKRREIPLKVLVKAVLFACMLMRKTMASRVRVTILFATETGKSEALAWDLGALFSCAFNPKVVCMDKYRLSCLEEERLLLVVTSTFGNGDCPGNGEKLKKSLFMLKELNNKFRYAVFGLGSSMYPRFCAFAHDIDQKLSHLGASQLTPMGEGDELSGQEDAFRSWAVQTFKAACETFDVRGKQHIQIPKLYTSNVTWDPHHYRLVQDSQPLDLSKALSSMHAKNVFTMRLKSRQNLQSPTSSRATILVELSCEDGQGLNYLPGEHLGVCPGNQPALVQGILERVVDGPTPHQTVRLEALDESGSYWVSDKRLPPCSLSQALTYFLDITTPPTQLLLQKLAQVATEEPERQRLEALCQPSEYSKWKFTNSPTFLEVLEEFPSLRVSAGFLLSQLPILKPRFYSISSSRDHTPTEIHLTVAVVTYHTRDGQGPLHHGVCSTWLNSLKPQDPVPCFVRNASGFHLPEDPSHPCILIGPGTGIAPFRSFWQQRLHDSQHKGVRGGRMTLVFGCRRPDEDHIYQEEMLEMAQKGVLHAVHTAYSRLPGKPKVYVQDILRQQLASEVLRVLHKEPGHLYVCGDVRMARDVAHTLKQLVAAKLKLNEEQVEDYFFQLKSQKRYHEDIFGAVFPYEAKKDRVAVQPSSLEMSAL
# T1 construct: positive control (induction of the enzyme): mixtures of interferon-(1000 U/ml) and of interleukin 1-(100 U/ml); endogenous in cells; 267(30), 21277-21280, 1992
# Experiment: Inhibition of inducible NO-synthase (test of Heck et al.): nitrite/nitrate measured after stimulating NO-synthase 2 with interferon and interleukin 1
# Format: cell-based
# Conditions: control compound at 200 μm; nitrites and nitrates after induction
# Method: The activity of N,N′-bis(2-pyridyl)methyl-N,N′-bis(3,4,5-trimethoxybenzyl)ethylenediamine on inducible NO-synthase was evaluated in the test described by Heck et al., (J.B.C., Vol. 267, No. 30, 21277-21280, Oct. 25, 1992).
# The object of this test is to show the reduction in the concentration of nitrate and nitrite, ultimately, after stimulating NO-synthase 2.
# The following controls were introduced into the tests:
# A: positive control (induction of the enzyme): mixtures of interferon-(1000 U/ml) and of interleukin 1-(100 U/ml);
# To determine the activity of the test product, the amount of stable NO reaction products (nitrites and nitrates) is measured using the “nitric calorimetric assay” kit marketed by Boehringer under the reference 1756.28.
# N,N′-bis(2-pyridyl)methyl-N,N′-bis(3,4,5-trimethoxybenzyl) ethylenediamine was tested at concentrations of 10 μM, 50 μM and 100 μM in ethanol.
smiles,measurement,value
"CNC(=N)NCCC[C@H](N)C(=O)O [B, N^G-monomethyl-L-arginine (L form), reference compound]",% Inhibition,100%
"CNC(=N)NCCC[C@H](N)C(=O)O [C, N^G-monomethyl-L-arginine (D form), reference compound]",% Inhibition,0%

# Source: patent US20040152735A1, “NO-synthase inhibitors comprising N,N'-bis(2-pyridyl)methyl-N,N'-bis(3,4,5-trimethoxybenzyl) ethylenediamine” (SOCIETE L'OREAL, S.A., priority 2001, published 2004)
